Assay results: US9795597B2, “Cyclopropylamines as LSD1 inhibitors” (GlaxoSmithKline Intellectual Property (No.2) Limited, priority 2011, dated 2017)

Chains of the proteins cited; added tags and fusions are not shown.
UniProt P27338, whole entry: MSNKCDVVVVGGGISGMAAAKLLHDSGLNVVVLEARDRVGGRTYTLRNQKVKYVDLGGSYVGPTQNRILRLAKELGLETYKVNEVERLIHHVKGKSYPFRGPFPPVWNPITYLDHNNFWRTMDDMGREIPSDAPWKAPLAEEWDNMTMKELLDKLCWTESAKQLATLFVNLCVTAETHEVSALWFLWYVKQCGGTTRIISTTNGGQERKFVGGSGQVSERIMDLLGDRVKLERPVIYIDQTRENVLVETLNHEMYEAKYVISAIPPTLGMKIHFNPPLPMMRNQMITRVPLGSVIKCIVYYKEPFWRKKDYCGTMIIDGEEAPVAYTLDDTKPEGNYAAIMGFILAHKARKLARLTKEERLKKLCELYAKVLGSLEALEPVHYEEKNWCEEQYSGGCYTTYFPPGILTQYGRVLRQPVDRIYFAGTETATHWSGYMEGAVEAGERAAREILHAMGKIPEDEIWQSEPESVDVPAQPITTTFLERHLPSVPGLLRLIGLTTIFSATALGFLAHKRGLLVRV

Molecular target: T1, MAO-B (Homo sapiens, UniProt P27338)
T1 construct: purchased Gentest-BD Biosciences 456284
Assay: Biochemical assay for MAO-B activity (FLINT, benzylamine/amplex red)
Conditions: average of two or more tests; 30 min preincubation of enzyme and compound; read-out: MAOB PIC50 MEAN (converted)
Method: Biochemical Assay for MAO-B Activity
The MAO-B FLINT assay is performed in a buffer containing 50 mM potassium phospate, pH 7.4, in milliQ ultrapure water. […] The enzyme and test compound are allowed to incubate together for 30 minutes at room temperature. Five microliters of the substrate mix are then added to each well of the plate to initiate the reaction. The plates are covered, protected from light and allowed to incubate for one hour at room temperature. […] Percent inhibition is calculated based on no compound and no enzyme controls, and inhibition curves are then plotted to determine PIC50 values.

Q: c1ccc([C@@H]2C[C@H]2NCCC2CCNCC2)cc1 (relative stereo) [Example 23, [trans-2-Phenylcyclopropyl][2-(4-piperidinyl)ethyl]amine] was tested. Which IC50 did it give?
A: 63.1 µM
